Literature values as cited in paper PMC8373167 (Advanced Science, 2021).

Conditions: in vivo; cited from earlier work

For `OC[C@H]1OC(O)[C@H](F)[C@@H](O)[C@@H]1O` (stereo partly shown) [^18F‐FDG, ^18F‐Fluorodeoxyglucose], the whole-body effective dose is given as 0.019 mSv MBq^−1.
